# Where “and” joins values, the source holds several entries; their conditions need not be identical. Identical values can stand only once. Only a part is listed here, and it is no random draw. Inconclusive results are not listed. Calls of active or inactive are those of the source. Calls follow the shape of the dose curve; as a rule, active = well fitted cell-killing curve with a large enough effect in the repeat runs; inconclusive = weak or mixed curves, or effect the other way; inactive = no such curve, though single readings can be large or run the other way.
# Experiment: qHTS assay for small molecule activators of the heat shock response signaling pathway - cell viability counter screen (AID 743209); also: nearly all actives have a fitted effect of over 50% in size
# Details: HSE-bla HeLa viability, CellTiter-Glo luminescence, 5 h; at 62.6 µM (top of the series)
# Excerpt: U.S. Tox21 Program National Center for Advancing Translational Sciences [NCATS] NIH Chemical Genomics Center [NCGC] U.S. Environmental Protection Agency [EPA] National Institutes of Environmental Health Sciences [NIEHS] National Toxicology Program [NTP] U.S. Food and Drug Administration [FDA] Tox21 Assay Overview: Various chemicals, environmental and physiological stress conditions may lead to the activation of heat shock response/ unfolded protein response (HSR/UPR). There are three heat shock transcription factors (HSFs) (HSF-1, -2, and -4) mediating transcriptional regulation of the human HSR. To identify the compounds that activate HSR signaling, HSE-bla HeLa cell line (Invitrogen, Carlsbad, CA, USA) containing a beta-lactamase reporter gene under the control of the heat shock response elements was used to screen Tox21 10K compound library. The cytotoxicity of the Tox21 compound library against the HSE-bla HeLa cell line was tested in parallel by measuring the cell viability using CellTiter-Glo assay (Promega, Madison, WI) in the same wells.
# Tox21 Assay Protocol Summary: The CellSensor HSE-bla HeLa cells (Invitrogen, Carlsbad, CA, USA) were dispensed at 1500 cells/6uL/well into 1536-well black wall/clear bottom plates using a Multidrop combi (Thermo Fisher Scientific, Waltham, MA) dispenser. After the assay plates were incubated at 37 C and 5% CO2 overnight, 23 nL of compounds dissolved in DMSO, positive controls or DMSO only was transferred to the assay plate by a Pintool station (Kalypsys, San Diego, CA). The plates were incubated at 37 C for 5 h. After 1 uL of LiveBLAzerTM B/G FRET substrate was added using a Flying Reagent Dispenser (FRD, Beckman Coulter, Indianapolis, IN, USA), the plates were incubated at room temperature for 2.5 h, and fluorescence intensity was measured by an Envision plate reader (PerkinElmer, Shelton, CT). For cell viability readout that measures cytotoxicity, 3 ul/well of CellTiter-Glo reagent was added into the assay plates using a FRD. After 30 min incubation at room temperature, the luminescence intensity in the plates was measured using a ViewLux (PerkinElmer) plate reader.
# % is scaled to controls: 0 for no effect and ±100 for the full control effect.
row,SMILES,"activity change, negative = cytotoxicity"
1,C/C1=C2N=C(/C=C3N=C(/C(C)=C4\[N-][C@@](C)([C@@H]5N=C1[C@](C)(CCC(=O)NC[C@@H](C)OP(=O)([O-])O[C@H]1[C@@H](O)[C@@H](n6cnc7cc(C)c(C)cc76)O[C@@H]1CO)[C@H]5CC(N)=O)[C@@](C)(CC(N)=O)[C@@H]4CCC(N)=O)[C@@](C)(CC(N)=O)[C@@H]\3CCC(N)=O)C(C)(C)[C@@H]/2CCC(N)=O.[C-]#N.[Co+3],inactive: 2.63%
2,Cc1ccc([N+](=O)[O-])c([N+](=O)[O-])c1,inactive: 7.06%
3,CCOP(=O)(CC)OCC,inactive: 5.59%
4,CCOP(=O)(CC)Oc1ccc([N+](=O)[O-])cc1 (stereo not drawn),inactive: -26.3%
5,CP(=O)(O)OCCC[Si](O)(O)O,inactive: -7.32%
6,[NH4+].[O-][Cl+3]([O-])([O-])[O-],inactive: 2.98%
7,COc1ccc([N+](=O)[O-])cc1[N+](=O)[O-],inactive: -2.48%
8,COP(C)(=O)OC,inactive: 3.33%
9,Cc1c([N+](=O)[O-])cccc1[N+](=O)[O-],inactive: 0.241% and inactive: -6.34%
10,O=[N+]([O-])OCC(CO[N+](=O)[O-])(CO[N+](=O)[O-])CO[N+](=O)[O-],inactive: 5.06%
11,OCCSCCO,inactive: 3.73%
12,O=[N+]([O-])[O-].[NH4+],inactive: -2.85% and inactive: -2.38%
13,Cc1ccc([N+](=O)[O-])cc1[N+](=O)[O-],inactive: -0.721% and inactive: -2.35%
14,CC(C)N(CCO)C(C)C,inactive: -13.1%
15,CC(C)OP(C)(=O)OC(C)C,inactive: -0.332% and inactive: 8.12%

# Same assay, conditions: HSE-bla HeLa viability, CellTiter-Glo luminescence, 5 h; at 81.1 µM (top of the series)
row,SMILES,"activity change, negative = cytotoxicity"
1,O=[N+]([O-])c1cccc([N+](=O)[O-])c1,inactive: -20.6%
2,Cc1ccc([N+](=O)[O-])c([N+](=O)[O-])c1,inactive: -0.786%
3,[NH4+].[O-][Cl+3]([O-])([O-])[O-],inactive: 2.5%
4,COP(C)(=O)OC,inactive: 1.47%
5,Nc1cc([N+](=O)[O-])cc([N+](=O)[O-])c1O,inactive: 4.49%
6,OCCSCCO,inactive: 13.9%
7,N=C(N)N[N+](=O)[O-],inactive: -13.6%
8,CCN(CC)CCCl,inactive: 6.14%

# Reference: PubChem BioAssay (Tox21)
